How the values were obtained:
[1] = biological target: human muscarinic M4 receptor (Homo sapiens, UniProt P08173); test: Alphascreen Surefire phospho-ERK1/2 functional assay, M4; type: cell-based; conditions: CHO cells stably expressing human M4; for pEC50 M4: agonist 5 min, 37° C.; for % Emax cf. ACh (M4): relative to ACh
[2] = biological target: human muscarinic M1 receptor (Homo sapiens, UniProt P11229); test: Alphascreen Surefire phospho-ERK1/2 functional assay, M1; conditions: CHO cells stably expressing human M1; for pEC50 M1: agonist 5 min, 37° C.; for % Emax cf. ACh (M1): relative to ACh

By UniProt entry, the sequences of proteins in these tests, tags left out.
UniProt P08173, whole entry: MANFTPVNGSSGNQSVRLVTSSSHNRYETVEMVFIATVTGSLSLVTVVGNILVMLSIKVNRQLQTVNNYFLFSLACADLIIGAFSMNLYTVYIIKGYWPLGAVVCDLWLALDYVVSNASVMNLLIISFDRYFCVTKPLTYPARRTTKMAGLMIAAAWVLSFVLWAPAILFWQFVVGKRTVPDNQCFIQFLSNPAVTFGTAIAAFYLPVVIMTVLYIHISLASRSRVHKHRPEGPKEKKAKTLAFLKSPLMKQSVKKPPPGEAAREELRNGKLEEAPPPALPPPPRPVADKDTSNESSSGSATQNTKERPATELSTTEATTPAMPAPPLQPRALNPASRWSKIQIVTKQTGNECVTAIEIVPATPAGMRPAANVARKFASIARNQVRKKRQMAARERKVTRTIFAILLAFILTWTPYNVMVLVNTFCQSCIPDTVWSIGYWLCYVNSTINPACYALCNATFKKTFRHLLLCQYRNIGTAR
UniProt P11229, whole entry: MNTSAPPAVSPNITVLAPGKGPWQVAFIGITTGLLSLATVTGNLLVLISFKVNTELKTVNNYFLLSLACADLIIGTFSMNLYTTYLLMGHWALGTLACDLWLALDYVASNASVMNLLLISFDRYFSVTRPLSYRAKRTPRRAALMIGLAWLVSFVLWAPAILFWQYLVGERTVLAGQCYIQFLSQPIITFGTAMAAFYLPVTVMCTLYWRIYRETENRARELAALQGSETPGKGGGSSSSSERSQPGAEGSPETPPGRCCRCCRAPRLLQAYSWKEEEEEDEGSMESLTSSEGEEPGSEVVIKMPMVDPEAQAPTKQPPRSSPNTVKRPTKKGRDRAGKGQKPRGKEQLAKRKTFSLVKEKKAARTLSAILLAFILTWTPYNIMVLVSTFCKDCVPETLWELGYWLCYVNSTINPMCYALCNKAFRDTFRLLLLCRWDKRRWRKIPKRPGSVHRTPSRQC

Row | pEC50 M4 [1] | % Emax cf. ACh (M4) [1] [%] | pEC50 M1 [2] | % Emax cf. ACh (M1) [2] [%] | Structure (SMILES)
1 | 6.45 | 95 | 6.79 | 129 | CCOC(=O)N1CCC2(CC(N3C[C@@H]4[C@H](C3)[C@H]4C(=O)N(C)OC)C2)C1 (single isomer, unassigned)
2 | 5.96 | 28 | 6.39 | 57 | CCOC(=O)N1CCC2(CC(N3C[C@@H]4[C@H](C3)[C@H]4C(=O)N(CC)C(C)C)C2)C1 (single isomer, unassigned)
3 | 6.24 | 73 | 6.67 | 96 | CCN(CC)C(=O)[C@H]1[C@@H]2CN(C3CC4COCC(C3)N4C(=O)OC)C[C@@H]21 (single isomer, unassigned)
4 | 4.70 | 16 | 6.03 | 123 | CCOC(=O)N1CC2CCC1CC2N1C[C@@H]2[C@H](C1)[C@H]2C(=O)N(CC)OC (single isomer, unassigned) [8-10 Isomer 2]
5 | 4.70 | 8 | 5.94 | 49 | CCOC(=O)N1CC2CC(N3C[C@@H]4[C@H](C3)[C@H]4C(=O)N(CC)CC)CC2C1 (single isomer, unassigned) [12-1 Isomer 2]
6 | 6.90 | 84 | 7.98 | 97 | CCOC(=O)N1CCCC(N2C[C@@H]3[C@H](C2)[C@H]3C(=O)N(CC)CC)CC1 (single isomer, unassigned) [11-1 Isomer 1]
7 | 4.70 | 2 | 6.07 | 31 | CCN(CC)C(=O)[C@H]1[C@@H]2CN(C3CC4CCC3CN4C(=O)OC)C[C@@H]21 (single isomer, unassigned) [8-6 Isomer 1]
8 | 4.70 | 2 | 6.45 | 39 | CCN(CC)C(=O)[C@H]1[C@@H]2CN(C3CC4CCC3CN4C(=O)OC)C[C@@H]21 (single isomer, unassigned) [8-6 Isomer 2]
9 | 5.79 | 53 | 6.03 | 76 | CCOC(=O)N1CCC2(CC(N3C[C@@H]4[C@H](C3)[C@H]4C(=O)N(CC)OC)C2)C1 (single isomer, unassigned) [2-24 Isomer 1]
10 | 5.20 | 52 | 6.20 | 134 | CCOC(=O)N1C[C@@H]2CC[C@H]1CC2N1C[C@@H]2[C@H](C1)[C@H]2C(=O)N(C)CC (single isomer, unassigned)
11 | 4.70 | 7 | 6.43 | 99 | CCOC(=O)N1CC2CCC1CC2N1C[C@@H]2[C@H](C1)[C@H]2C(=O)N(C)OC (single isomer, unassigned)
12 | 4.70 | 2 | 6.46 | 76 | CCOC(=O)N1CC2CCC(C1)C2N1C[C@@H]2[C@H](C1)[C@H]2C(=O)N(CC)CC (single isomer, unassigned)
13 | 5.92 | 43 | 6.34 | 67 | COC(=O)N1CCC2(CC(N3C[C@@H]4[C@H](C3)[C@H]4C(=O)N3CCC34CCC4)C2)C1 (single isomer, unassigned)
14 | 5.60 | 50 | 5.80 | 66 | CCN(CC)C(=O)[C@H]1[C@@H]2CN(C3CC4(CCN(C(=O)OC)C4)C3)C[C@@H]21 (single isomer, unassigned)
15 | 5.67 | 71 | 5.76 | 95 | CCOC(=O)N1CCC2(CC(N3C[C@@H]4[C@H](C3)[C@H]4C(=O)N3CCC34COC4)C2)C1 (single isomer, unassigned)
16 | 4.70 | 3 | 6.41 | 37 | CCOC(=O)N1CC2CC(N3C[C@@H]4[C@H](C3)[C@H]4C(=O)N(CC)CC)CC1C2 (single isomer, unassigned) [11-2 Isomer 1]
17 | 4.70 | 13 | 6.28 | 44 | CCOC(=O)N1CCC2(CC(N3C[C@@H]4[C@H](C3)[C@H]4C(=O)N3CCCOCC3)C2)C1 (single isomer, unassigned) [2-17 Isomer 1]
18 | 4.70 | 6 | 6.21 | 49 | CCOC(=O)N1CC2CC(N3C[C@@H]4[C@H](C3)[C@H]4C(=O)N(CC)CC)CC2C1 (single isomer, unassigned) [12-1 Isomer 1]
19 | 4.70 | 39 | 5.90 | 42 | CCOC(=O)N1CCC2(CC(N3C[C@@H]4[C@H](C3)[C@H]4C(=O)N(CC)CC)C2)C1 (single isomer, unassigned)
20 | 6.33 | 62 | 7.43 | 94 | CCOC(=O)N1CCCC(N2C[C@@H]3[C@H](C2)[C@H]3C(=O)N(CC)CC)CC1 (single isomer, unassigned) [11-1 Isomer 2]
21 | 6.45 | 61 | 4.70 | 29 | CCOC(=O)N1CCC2(CC(N3C[C@@H]4[C@H](C3)[C@H]4c3csc(C)n3)C2)C1 (single isomer, unassigned) [2-30 Isomer 1]

Further lines, the compound ahead of its results:

Row | Structure (SMILES) | pEC50 M4 [1] | % Emax cf. ACh (M4) [1] [%] | pEC50 M1 [2] | % Emax cf. ACh (M1) [2] [%]
22 | CCOC(=O)N1CCC2(CC(N3C[C@@H]4[C@H](C3)[C@H]4C(=O)N3CC4(CCC4)C3)C2)C1 (stereo partly drawn) | 6.04 | 34 | 4.70 | 11
23 | CCOC(=O)N1C[C@@H]2CC[C@H]1CC2N1C[C@@H]2[C@H](C1)[C@H]2C(=O)N(CC)CC (single isomer, unassigned) | 4.70 | 4 | 6.13 | 89
24 | CCOC(=O)N1CCC2(CC(N3C[C@@H]4[C@H](C3)[C@H]4C(=O)NCC(C)C)C2)C1 (single isomer, unassigned) [2-2 Isomer 1] | 5.62 | 43 | 6.41 | 69
25 | CCOC(=O)N1CCC2(CC(N3C[C@@H]4[C@H](C3)[C@H]4C(=O)N(C)C(C)C)C2)C1 (single isomer, unassigned) [2-8 Isomer 1] | 5.78 | 37 | 6.06 | 50
26 | CCOC(=O)N1CCC2(CC(N3C[C@@H]4[C@H](C3)[C@H]4C(=O)N3CCCC3)C2)C1 (single isomer, unassigned) [2-12 Isomer 1] | 6.14 | 85 | 4.88 | 65
27 | CCOC(=O)[C@H]1[C@@H]2CN(C3C4CC3CN(C(=O)OCC)C4)C[C@@H]21 (single isomer, unassigned) [5-1 Isomer 1] | 6.53 | 81 | 5.21 | 78
28 | CCOC(=O)N1CCC2(CC(N3C[C@@H]4[C@H](C3)[C@H]4C(=O)N3CCCC3)C2)C1 (single isomer, unassigned) [2-12 Isomer 2] | 6.37 | 72 | 6.67 | 79
29 | CCOC(=O)[C@H]1[C@@H]2CN(C3C4CC3CN(C(=O)OCC)C4)C[C@@H]21 (single isomer, unassigned) [5-1 Isomer 2] | 6.09 | 54 | 4.70 | 102
30 | CCOC(=O)N1CCC2(CC(N3C[C@@H]4[C@H](C3)[C@H]4C(=O)NC3(C)CCC3)C2)C1 (single isomer, unassigned) [2-4 Isomer 1] | 5.97 | 37 | 5.64 | 49
31 | CCOC(=O)[C@H]1[C@@H]2CN(C3CC4CCC3CN4C(=O)OCC)C[C@@H]21 (stereo partly drawn) | 6.26 | 61 | 5.78 | 53
32 | CCOC(=O)N1C[C@H]2CC[C@@H]1CC2N1C[C@@H]2[C@H](C1)[C@H]2C(=O)N(C)CC (single isomer, unassigned) | 5.49 | 29 | 5.83 | 104
33 | CCOC(=O)N1CCC2(CC(N3C[C@@H]4[C@H](C3)[C@H]4C(=O)N3CCCC[C@H]3C)C2)C1 (single isomer, unassigned) [2-14 Isomer 1] | 5.91 | 33 | 6.49 | 80
34 | CCOC(=O)N1CCC2(CC(N3C[C@@H]4[C@H](C3)[C@H]4C(=O)N3CCCCC3)C2)C1 (single isomer, unassigned) [2-13 Isomer 1] | 4.70 | 71 | 6.72 | 31
35 | CCOC(=O)N1CCC2(CC(N3C[C@@H]4[C@H](C3)[C@H]4C(=O)NCC3CCC3)C2)C1 (single isomer, unassigned) [2-3 Isomer 2] | 5.97 | 66 | 6.83 | 90
36 | CCN(C(=O)[C@H]1[C@@H]2CN(C3CC4(CCN(C(=O)OC)C4)C3)C[C@@H]21)C(C)C (single isomer, unassigned) | 4.70 | 56 | 5.93 | 66

Source: patent publication US10329278B2, “Pharmaceutical compounds” (Heptares Therapeutics Limited, priority 2017, dated 2019)
